Columns and labels:
[1] = test system: K^+ transport; assay: K^+ transport: ^86 Rb uptake by P3 membrane fractions of whole mouse brain; type: biochemical, Swiss mice
[2] = target: T1, Acetylcholinesterase (Electrophorus electricus, UniProt O42275); assay: Acetylcholinesterase activity, acetylthiocholine substrate, colorimetric (Ellman); type: biochemical, electric eel
T1 construct: The enzyme employed was prepared from the electric organ of the electric eel; from tissue; host or cells: electric organ of the electric eel

Amino acid sequences for entries named in this document (tags omitted). Residues count along the entry.
UniProt O42275, 24-633: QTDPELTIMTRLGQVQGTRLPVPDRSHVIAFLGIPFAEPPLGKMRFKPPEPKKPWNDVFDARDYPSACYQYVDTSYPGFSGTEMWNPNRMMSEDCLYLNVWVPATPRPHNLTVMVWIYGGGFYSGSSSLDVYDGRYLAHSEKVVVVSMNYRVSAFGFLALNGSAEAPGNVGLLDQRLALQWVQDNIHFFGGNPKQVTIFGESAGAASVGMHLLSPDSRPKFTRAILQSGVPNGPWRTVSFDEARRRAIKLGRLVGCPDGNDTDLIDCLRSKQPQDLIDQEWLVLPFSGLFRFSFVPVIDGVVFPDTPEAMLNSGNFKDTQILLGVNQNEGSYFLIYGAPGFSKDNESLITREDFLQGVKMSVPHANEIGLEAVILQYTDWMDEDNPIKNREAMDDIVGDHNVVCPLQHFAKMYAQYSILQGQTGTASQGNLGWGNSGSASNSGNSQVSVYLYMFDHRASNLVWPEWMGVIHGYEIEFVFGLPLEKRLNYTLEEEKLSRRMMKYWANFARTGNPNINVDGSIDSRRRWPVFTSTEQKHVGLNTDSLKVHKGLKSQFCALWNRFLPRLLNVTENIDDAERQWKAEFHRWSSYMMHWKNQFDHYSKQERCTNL

**Q.** `Nc1c2ccccc2nc2ccccc12` [9-aminoacridine] was tested. Which “K^+ transport inhibition activity relative to amodiaquin (in words)” value ([1]; fraction of amodiaquin's activity) did it give?
**A.** Its value is “approximately one-half”.

**Q.** And the “K^+ Transport Relative Potency” value ([1]; relative to amodiaquin = 1)?
**A.** Its value is 0.57.

**Q.** What about the “Concentration inhibiting K^+ transport (selection criterion met)” value ([1]; submillimolar concentrations) of the same compound?
**A.** Its value is ≤ 10^-3 M.

**Q.** And the IC50 [2]?
**A.** The IC50 was 45 nM.

**Q.** What about the “Cholinesterase inhibitory potency relative to amodiaquin (in words)” value ([2]; fraction of amodiaquin's inhibitory potency) of the same compound?
**A.** Its value is “less than one-tenth”.

**Q.** What about the “Concentration inhibiting acetylcholinesterase (selection criterion met)” value ([2]; micromolar or lower concentrations) of the same compound?
**A.** Its value is ≤ 10^6 M.

**Q.** What about the “Acetylcholinesterase Activity Rank Order” value ([2]; rank among the five substances) of the same compound?
**A.** The value was 2.

**Q.** What about the “Acetylcholinesterase Activity Relative Potency” value ([2]; relative to amodiaquin = 1) of the same compound?
**A.** Its value is 0.089.

Source: patent US4806537A (City of Hope, priority 1988, dated 1989)
